Values of other authors, collected in patent US20180071303A1, “SYK INHIBITORS” (Gilead Sciences, Inc., priority 2016, published 2018).

Biological target: SYK (Homo sapiens, UniProt P43405)
Details: SYK versus Jak2, cKit, Flt3, Ret and KDR; FIG. 5 adapted from Currie et al.; cited from earlier work

Which “activity against SYK compared to other protein kinases (selectivity)” value does the source give for c1cn2cc(-c3ccc4cn[nH]c4c3)nc(Nc3ccc(N4CCOCC4)cc3)c2n1 [entospletinib] here?
Its value is “at least ten fold more active”.
